Earlier results, collected in patent US9351926B2 (Pharmaceutical Solutions Industry Ltd., priority 2012, dated 2016).

Conditions: in vivo

Metabolism: Hepatic (CYP2C9)
Compound: CC(C)Cc1ccc(C(C)C(=O)O)cc1 (racemic) [Ibuprofen, (RS)-2-(4-(2-methylpropyl)phenyl) propanoic acid]
